PglD inh: PglD (C. jejuni) enzyme inhibition. purified PglD enzyme, DTNB colorimetric CoA detection. inhibition, % at 12.5 µM. 0.098% of 360,000 active; in the data active = inhibition above about 16%, passing the limit was not always enough
RAD54 inh: blocks human RAD54 Holliday junction branch migration | Q92698 | FAM/BHQ fluorescence | inhibition, % at 10.4 µM | AID 602329 | 0.14% of 360,000 active;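 active = mean normalized replicate activity at least 40 and at least half of replicates scoring 40 or more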;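 note: inhibitors cause a drop in the FAM fluorescence signal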
INS-1E GSIS act: GLuc luminescence reporter in INS-1E cells, primary screen for activators of glucose-dependent secretion of insulin | activation, % at 16.6 µM | INS-1E GLuc reporter insulin secretion, 2-3 h | 0.61% of 370,000 active;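 active = lowest replicate activation of at least 40%, so every replicate reaches that level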
RAD52 anneal inh: blocks human RAD52 DNA annealing | P43351 | recombinant RAD52 DNA annealing, FRET fluorescence | inhibition, % at 18.7 µM | 0.46% of 360,000 active;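 active = every replicate showing at least 50% inhibition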
Casp6 inh: inhibitors of human caspase-6; P55212; purified caspase-6, Z-VEID-R110 cleavage fluorescence; inhibition, % at 12.5 µM; 0.53% of 350,000 active;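 active = mean inhibition across replicates at least about 35%, with every replicate also reaching that limit, limit read from the data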
UUG fidelity: modulators of yeast start codon fidelity, primary screen, whole organism, S. cerevisiae, single point, plate reader | AID 602363, 2012 | actives 0.13% (n = 350,000) | activity score, % at 18.7 µM | S. cerevisiae UUG-firefly luciferase reporter, luminescence/redox ratio;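 active means replicate mean at a twofold rise or more, about +100% in these data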;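 further: firefly luciferase made from a UUG start codon reports start codon fidelity; reporter light over untreated wells divided by growth signal over untreated wells; some hits fall short of that in this replicate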
Large screens that a line does not name were inactive. Sampled rows, rich in hits. Any-hit rate of the full collection: about 1.5%.

CCCN1C[C@@H](C)[C@@H](OC)CN(C)C(=O)c2cc(NC(=O)c3ccc(F)cc3)ccc2OC[C@H]1C	none
O=C(C[C@H]1CC[C@H]2[C@@H](COC[C@@H](O)CN2S(=O)(=O)c2cccc(F)c2)O1)NCc1ccncn1	none
O=C(CCN1C(=O)/C(=C\C=C\c2ccccc2)SC1=S)Nc1cccc(C(=O)O)c1	none
O=C(O)CCCN1C(=O)/C(=C/C=C/c2ccco2)SC1=S	Casp6 inh 82 (no result: PglD inh, RAD54 inh, UUG fidelity)
O=C(CCN1C(=O)/C(=C\C=C\c2ccccc2)SC1=S)Nc1ccccc1C(=O)O	Casp6 inh 45
O=C(O)CCCN1C(=O)/C(=C\c2ccc(-c3nc4ccccc4s3)o2)SC1=S	Casp6 inh 43
CNc1nc(-c2cccs2)cc(C(F)(F)F)c1C#N	none (no result: PglD inh, RAD54 inh, UUG fidelity)
CC(=O)Nc1ccc(C=NNc2ccc(S(=O)(=O)Nc3ccccc3C(=O)O)cc2[N+](=O)[O-])cc1	none (no result: INS-1E GSIS act)
CN(CCO)c1ccc(C=NNc2ccc([N+](=O)[O-])cc2S(=O)(=O)Nc2ccccc2C(=O)O)cc1	Casp6 inh 37
O=C(O)c1ccccc1NS(=O)(=O)c1ccc(N/N=C/c2cccc(O)c2O)c([N+](=O)[O-])c1	Casp6 inh 60 (no result: INS-1E GSIS act)
CC(=O)Nc1ccc(C=NNc2ccc([N+](=O)[O-])cc2S(=O)(=O)Nc2ccccc2C(=O)O)cc1	none
O=C(C1=C(O)C(=O)N(CCN2CCOCC2)C1c1cccc(O)c1)c1cc2ccccc2o1 (configuration not stated)	none
CCn1c(C)nc2cc(S(=O)(=O)C(F)(F)F)ccc21	INS-1E GSIS act 99 (no result: RAD52 anneal inh, Casp6 inh)
CCn1c(C)nc2cc(S(=O)(=O)C(F)F)ccc21	none (no result: RAD52 anneal inh, Casp6 inh)
COc1ccc(S(=O)(=O)NC2CC(=O)N(c3ccc(C)c(C)c3)C2)cc1 (configuration not stated)	none (no result: PglD inh, RAD54 inh, UUG fidelity)
C#Cc1ccc([C@@H]2C=C(C(=O)NC3CC3)O[C@H](OCc3ccc(CO)cc3)C2)cc1	none (no result: RAD52 anneal inh, Casp6 inh)
C=C(C)Cn1c(SCC#N)nc2ccccc2c1=O	none (no result: INS-1E GSIS act, RAD52 anneal inh, Casp6 inh)
N#CCSc1nc2ccccc2c(=O)n1CC1CCCC1	INS-1E GSIS act 44
COC(=O)C1=C(C)N(Cc2ccc(C(F)(F)F)cc2)C(=NCc2ccccc2)NC1c1ccccc1 (configuration not stated)	INS-1E GSIS act 949 (no result: PglD inh, RAD54 inh, UUG fidelity)
COC(=O)C1=C(C)N(Cc2ccc(C(F)(F)F)cc2)C(=NCc2ccccc2)NC1c1ccc(C(F)(F)F)cc1 (configuration not stated)	INS-1E GSIS act 460 (no result: PglD inh, RAD54 inh, UUG fidelity)
O=C(NCc1ccccc1)C(c1ccco1)N(C(=O)c1cnccn1)c1ccc(F)cc1 (configuration not stated)	none (no result: INS-1E GSIS act, RAD52 anneal inh, Casp6 inh)
Cc1cc(N=Nc2ccc(C)c(N=Nc3cc(C)c(N)cc3N)c2)c(N)cc1N	RAD54 inh 101, RAD52 anneal inh 80
CCc1ccccc1OCC(=O)OCC(=O)N1CC(=O)Nc2ccccc21	Casp6 inh 60 (no result: PglD inh, RAD54 inh, UUG fidelity)
COc1ccc(OCC(=O)OCC(=O)N2CC(=O)Nc3ccccc32)cc1	none
CCCNc1cc(C)oc(=O)c1C(=O)CCC	INS-1E GSIS act 88 (no result: RAD52 anneal inh, Casp6 inh)
COC(=O)C1=C(C)NC(=O)C1(NC(=O)c1cccnc1)C(F)(F)F (configuration not stated)	none
COc1ccc(C2=Nn3c(nnc3-c3ccccc3)SC2)cc1OC	none
COc1ccc(C2=Nn3c(nnc3-c3ccccc3F)SC2)cc1OC1CCOC1 (configuration not stated)	INS-1E GSIS act 45
COc1ccc(OC)c(-c2nnc3n2N=C(c2ccc(OC)c(OC4CCCC4)c2)CS3)c1	none (no result: INS-1E GSIS act)
CC1=Nn2c(nnc2-c2ccccc2F)SC1	none (no result: INS-1E GSIS act, RAD52 anneal inh, Casp6 inh)
CCCc1nnc2n1N=C(c1ccc(OC)c(OC)c1)CS2	INS-1E GSIS act 106 (no result: PglD inh, RAD54 inh, UUG fidelity)
COc1ccc(OCc2nnc3n2N=C(c2ccc(OC)cc2)CS3)cc1	INS-1E GSIS act 45
COc1ccc(OC)c(-c2nnc3n2N=C(c2ccc(OC)c(OC)c2)CS3)c1	INS-1E GSIS act 80
CC(Oc1ccc(Br)cc1)C(=O)N1CCc2ccccc21 (configuration not stated)	none (no result: INS-1E GSIS act, RAD52 anneal inh, Casp6 inh)
C[C@@H]1CCCCO[C@@H](CN(C)S(=O)(=O)c2ccc(F)cc2)[C@H](C)CN([C@H](C)CO)C(=O)c2cc(NC(=O)CCC(F)(F)F)ccc2O1	none
N#Cc1c(Nc2ccccc2)s[nH]c1=O	none (no result: PglD inh, RAD54 inh, INS-1E GSIS act, UUG fidelity)
CCOC(=O)C1(NC(=O)CN2C(=O)c3ccccc3C2=O)CCCC1	none

Screening data deposited in PubChem BioAssay by Broad Institute.
